Experimental data as given in patent publication US20250108038A1 (priority 2023, published 2025).

Molecular target: T1, OAT3 (Homo sapiens, UniProt Q8TCC7)
T1 sequence (Q8TCC7 1-542): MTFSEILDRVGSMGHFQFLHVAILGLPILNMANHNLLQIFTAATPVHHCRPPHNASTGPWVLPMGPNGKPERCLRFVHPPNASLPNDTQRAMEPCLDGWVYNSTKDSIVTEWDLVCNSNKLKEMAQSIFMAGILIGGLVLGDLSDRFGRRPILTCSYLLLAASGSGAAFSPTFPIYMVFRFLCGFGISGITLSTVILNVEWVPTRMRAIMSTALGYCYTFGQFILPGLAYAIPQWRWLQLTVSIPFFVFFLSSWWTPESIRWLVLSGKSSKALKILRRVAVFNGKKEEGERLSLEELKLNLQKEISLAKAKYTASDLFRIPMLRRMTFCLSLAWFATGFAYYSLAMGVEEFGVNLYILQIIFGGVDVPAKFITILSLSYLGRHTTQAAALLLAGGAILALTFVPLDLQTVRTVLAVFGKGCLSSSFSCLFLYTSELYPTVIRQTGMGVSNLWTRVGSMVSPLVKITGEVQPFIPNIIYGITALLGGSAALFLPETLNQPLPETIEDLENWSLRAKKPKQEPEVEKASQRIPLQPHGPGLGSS
Assay: Uptake transporter inhibition assay, OAT3 (estrone-3-sulfate)
Conditions: 500.00 μM nominal; E3S; Table 130

CCCN(CCC)S(=O)(=O)c1ccc(C(=O)O)cc1 [Probenecid]
Relative transporter specific accumulation: 2.73 ± 0.16 % of control
